# Data: BindingDB's records for PubMed 1656026 (University of Nebraska, 1991)
# Amino acid sequences for entries named in this document (tags omitted).
# UniProt P19328, whole entry: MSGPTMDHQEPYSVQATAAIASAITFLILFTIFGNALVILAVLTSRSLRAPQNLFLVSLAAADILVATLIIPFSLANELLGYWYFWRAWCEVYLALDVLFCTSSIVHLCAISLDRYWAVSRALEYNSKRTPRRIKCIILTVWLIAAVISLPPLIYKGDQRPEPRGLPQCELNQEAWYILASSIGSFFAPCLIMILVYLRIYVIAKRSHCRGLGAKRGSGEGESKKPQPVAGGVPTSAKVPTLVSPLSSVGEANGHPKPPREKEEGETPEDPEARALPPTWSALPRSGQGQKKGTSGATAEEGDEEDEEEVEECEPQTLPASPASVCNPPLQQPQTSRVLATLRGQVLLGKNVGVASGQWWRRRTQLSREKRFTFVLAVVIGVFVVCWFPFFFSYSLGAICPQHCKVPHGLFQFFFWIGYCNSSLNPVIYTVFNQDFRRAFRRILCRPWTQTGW
# UniProt P08913, whole entry: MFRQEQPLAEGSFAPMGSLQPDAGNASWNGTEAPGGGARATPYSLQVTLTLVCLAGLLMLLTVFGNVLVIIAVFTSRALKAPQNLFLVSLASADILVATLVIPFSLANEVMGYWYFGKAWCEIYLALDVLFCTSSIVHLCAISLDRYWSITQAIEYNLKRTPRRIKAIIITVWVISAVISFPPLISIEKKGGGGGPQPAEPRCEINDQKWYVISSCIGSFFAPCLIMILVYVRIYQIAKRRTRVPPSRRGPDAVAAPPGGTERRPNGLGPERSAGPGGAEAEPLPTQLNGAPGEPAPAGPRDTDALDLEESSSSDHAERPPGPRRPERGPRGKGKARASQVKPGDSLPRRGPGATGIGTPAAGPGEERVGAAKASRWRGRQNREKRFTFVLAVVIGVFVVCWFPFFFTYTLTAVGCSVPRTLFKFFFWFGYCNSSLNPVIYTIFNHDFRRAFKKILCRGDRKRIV
# Assays:
# [1] = molecular target: Alpha-2B adrenergic receptor (Rattus norvegicus, UniProt P19328)
# [2] = molecular target: Alpha-2A adrenergic receptor (Homo sapiens, UniProt P08913)
SMILES,Ki [1] [nM],Ki [2] [nM]
CSc1ccc2c(c1)N(CC[C@@H]1CCCCN1C)c1ccccc1S2 [10-[2-(1-Methyl-piperidin-2-yl)-ethyl]-2-methylsulfanyl-10H-phenothiazine (thioridazine)],259,
Clc1ccc2nsnc2c1NC1=NCCN1,,62
